Values quoted from earlier work as cited in publication PMC8393936.

Biological target: calcineurin catalytic subunit (Homo sapiens) (UniProt Q08209)
Assay: microscale thermophoresis

## alpha-synuclein (from UniProt P37840)
  Kd: 6.9 µM
